Measured values published in US20120190579A1, “Functionalisation of Solid Substrates” (priority 2009, published 2012).

Conditions: glutathione 1 mM, 37° C., 4 h, pH 7.4 (20 mM HEPES, 100 mM KCl)

GrB2-SH2 Domain L111C/Dibromomaleimide/Glutathione Adduct
cleavage of adduct to Grb2-SH2 (L111C): quantitative
